This test concerns anti-hCG monoclonal antibody directed against a portion of the β-subunit of hCG. Kind of test: EIA binding of BSA-conjugated peptide with anti-hCG monoclonal antibody. The settings on record: peptide conjugated to BSA, absorbed on 96-well plate; antibody overnight at 4° C; alkaline phosphatase labeled protein A. On the procedure: The binding of the synthesized peptide with an anti-hCG monoclonal antibody purified as per van Erp et al. J. Immunol. Methods, 140: 35-241 (1991) and directed against a portion of the β-subunit of hCG (provided by Organon-Teknika of Boxtel, NL) was determined by EIA. The peptide was conjugated through its thiol group to BSA using a heterobifunctional cross-linking reagent (succinimidyl 4-(N-maleimidomethyl)cyclohexane-1-carboxylate). The conjugates were first absorbed on the wells of a ninety-six well plate. Nonspecific binding sites on the surface was masked by unlabeled BSA. The anti-hCG antibody was allowed to react with both sample and control wells overnight at 4° C. Alkaline phosphatase labeled protein A was used for the color development.

Turning to “hCG: glycoprotein secreted by the placenta and excreted in the urine; positive control in the EIA”, the “binding with anti-hCG antibody (EIA response)” value is on record as “comparable responses to the peptide antigen”.

For the origin of these results see patent publication US5380668A, “Compounds having the antigenicity of hCG” (University of Utah Research Foundation, priority 1993, dated 1995).
